Data reported in paper PMC2860993 (PLoS ONE, 2010).

System: recombinant luciferase-expressing CMV (Towne)
Format: cell-based, human CMV
Procedure: Human Foreskin Fibroblasts (HFF) passage 12–16 and human lung fibroblasts (HEL) passage 8–12 (from ATCC) were maintained in DMEM containing 10% fetal bovine serum and used for infections with the viruses.
The CMV strains used for infections were the highly-passaged Towne virus, and a clinical isolate obtained from the urine of a neonate with congenital CMV infection (SB) and passaged once in tissue culture. […] Initial experiments were performed using a recombinant human CMV-green fluorescent protein (GFP) virus, derived from Towne strain. This virus has a 9-kb deletion from the dispensable unique short (US) region from US1 to US12, and instead contains the bacterial artificial chromosome sequences and a GFP expression cassette. […] A recombinant virus expressing luciferase reporter gene under the control of UL99 (pp28) late promoter was generated by insertion of the reporter gene between the US9 and US10 ORFs in the Towne genome.
Towne-GFP, Towne–luciferase, and SB viruses were used in these assays. HFF or HEL were grown to subconfluent monolayers and infected with the CMV viruses at MOI 0.1 to 3. […] The concentration of each compound was calculated and adjusted by volume such that it was constant throughout the experiment. Following 90 minute incubation, media was replaced with fresh media containing the drug used. […]

## Nc1nc(O)c2ncn(COC(CO)CO)c2n1 [GCV, Ganciclovir]
Comparison of SI, Table 1
  selectivity relative to the monomers: approximately 10 times
Ratio between CC50 and EC50
  Selectivity index (SI): 44±6.2
